# Source: patent publication US20110207628A1
# Chains of the proteins cited; added tags and fusions are not shown. Residues count along the entry.
# UniProt P50586, 1-242: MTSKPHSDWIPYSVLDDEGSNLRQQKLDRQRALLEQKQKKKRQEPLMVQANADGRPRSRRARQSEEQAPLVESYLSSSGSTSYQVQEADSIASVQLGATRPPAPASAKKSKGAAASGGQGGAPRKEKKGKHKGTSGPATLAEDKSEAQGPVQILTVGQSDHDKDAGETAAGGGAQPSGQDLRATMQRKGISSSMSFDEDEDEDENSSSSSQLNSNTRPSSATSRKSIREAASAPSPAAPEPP
# Biological target: tubby-N (N-terminus of mouse tubby, 1M-242P), GST-free (mouse) (UniProt P50586)
# Assay: clonal phage on immobilized tubby-N, plaque assay
substance,measurement,value
"Paf1/RNA polymerase II complex component (Rtf1) 69N-186K, phage clone (from UniProt A2AQ19 69-186)",Binding to tubby-N (binding specificity of clonal phage vs. control phage),6.4 X (fold)
